{"source": "PubChem BioAssay (NCI)", "system": "MDA-MB-468 breast", "experiment": "NCI anticancer screen, dose series, 48 h", "note": "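Tested at 5 concentrations; 48 h exposure; 96-well plates; endpoints linearly interpolated, else capped at highest concentration. GI50 = concentration required for 50% inhibition of growth. At the TGI there is no net growth.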"}
{"smiles": "Cc1ccc(Sc2ccc([N+](=O)[O-])cc2[N+](=O)[O-])c([N+](=O)[O-])c1", "values": [{"measurement": "GI50", "result": 0.343, "unit": "µM"}, {"measurement": "TGI", "result": 10.6, "unit": "µM"}]}
